The values below are quoted from earlier work in patent US20120164738A1 (priority 2007, published 2012).

For this data set, the system named is rodents. The note with it: in vivo.

As for `NC1=NC(C(=O)O)CS1` (stereo not shown) [ATCA, 2-aminothiazoline-4-carboxylic acid], the neurotoxicity result was “neurotoxicant, forming hippocampal CA1 lesions in rodents”.
